Apparent affinities of Ab-14 variants for a coronavirus HR2 peptide

The target is the same throughout: PDVDLGDISGINAS, from the HR2 region of SARS-CoV-2 spike.

Each scFv is VH, a (GGGGS)3 linker, VL, as in the parent Ab-14, and differs from it in the CDRs of the light chain only.
VH: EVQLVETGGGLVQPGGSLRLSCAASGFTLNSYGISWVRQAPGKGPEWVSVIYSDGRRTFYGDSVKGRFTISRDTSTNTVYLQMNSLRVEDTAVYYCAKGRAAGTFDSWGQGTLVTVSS
VL: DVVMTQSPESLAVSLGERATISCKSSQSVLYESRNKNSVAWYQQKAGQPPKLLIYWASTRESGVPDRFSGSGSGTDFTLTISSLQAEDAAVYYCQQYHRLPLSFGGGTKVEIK

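The starting antibody came from a phage panning campaign against this peptide. The variants were designed computationally from a first round of random CDR variants and then made and measured. Several design methods are mixed in this list. AlphaSeq pools MATa yeast showing the antibodies with MATalpha yeast showing the peptide. After mating in shaken culture at 30 °C for 16 h, diploids were selected and their barcode pairs sequenced. Scores were corrected for input abundance and mapped to Kd with protein pairs of known affinity run in the same pool. The assay was run in six technical replicates.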

Each variant is given by its three light chain CDRs, as the data file delimits them; those of the parent are KSSQSVLYESRNKNSVA, WASTRES, QQYHRLPLS.
The read-out is the apparent dissociation constant on a log10 scale (nM): the lower, the stronger.
The mean shown is taken over the replicates in which the pair was detected.
Where no diploid with the target was found in any replicate, the entry reads "no signal": below detection, most likely a poor binder, though not proof of it.
The authors averaged sequences with at least three values out of six and counted those with two or fewer as poor binders.
Three control strains display no target. For all light chain designs, 4% of the pairings with them gave a signal, with a median of 2.64 and one signal in twenty below 1.59, so weak values seen in few replicates may be background.
Of ten entries with the parent sequence, four were seen in most replicates (averages 0.34 to 2.37), three in one and three in none, so single entries are noisy.
The range of this assay differs from that of the first round, and the authors advise against merging the two.

Variant KLSQSDLYESRNKNSVA / NASTREV / QQYHRLPLS gave -0.25 (6 of 6 replicates).
Variant KSPQSHLYGSRNKNSVA / NASERES / QQYHRLPLS gave 0.43 (6 of 6 replicates).
Variant KVSPSVLYESLNKNSVA / QASTREK / QQIHRHPLS gave 0.19 (6 of 6 replicates).
Variant KYSQSVMYESGNKNSVA / WASTRES / QQCHRLPLW gave 1.52 (2 of 6 replicates).
Variant KLSQSQLYESRNKNAVA / QASQRES / QQYHRLPLS gave -0.21 (6 of 6 replicates).
Variant KISESMYFAQFNKQSIA / EVSTRSK / QSYNRLPLS gave 0.84 (6 of 6 replicates).
Variant KASPSEEYESRNKNSVA / NASYREE / QQYHRLPLS gave 0.34 (6 of 6 replicates).
Variant KVSQSMLGESRNFNSVA / HASTREN / QQYHRLPLS gave 0.53 (6 of 6 replicates).
Variant KLSPSWLYEERNDNSVA / NASTRES / QQYHRLPLS gave -0.16 (6 of 6 replicates).
Variant KLSQSVLYESRNKNAVA / NASTRMS / QQYHRLPLS gave 0.01 (6 of 6 replicates).
Variant ILYESVGTLSRNKNSVA / DNSTRED / QQYDRLPLS gave 2.43 (6 of 6 replicates).
Variant NMKVGLNFEDIQHQAIA / SVDEREK / QQYYRLPLT gave 0.69 (6 of 6 replicates).
Variant TIGQMFNGETRNRNSVA / QASTRES / QSYDRLPLS gave 1.11 (6 of 6 replicates).
Variant KLSQSFLYESRNKNAVA / EASTRES / QQYHRLPLS gave -0.61 (6 of 6 replicates).
Variant KSSQSGLYESDGKNSVA / WASTREQ / KQYHRLPLS gave no signal (0 of 6 replicates).
Variant KLVGDMQEDKNPSENIA / EMSSVEQ / QQYSRLPLE gave 3.33 (2 of 6 replicates).
Variant MFSQLFMYGSRNYNSVA / QASTREA / QQYHRLPLI gave 0.83 (6 of 6 replicates).
Variant KLRQSTLYESRNQNSVA / GASTRES / QQYHRLPLS gave -0.39 (6 of 6 replicates).
Variant KMSQSELYESRNKNSVA / NASTRES / QQYHRLPLS gave 0.09 (6 of 6 replicates).
Variant TISQMTSLFSQSINNVA / EVSMREK / QQYDRLPLI gave 1.29 (5 of 6 replicates).
Variant TISGSAQQESHNKNSVA / DLSVRGS / QQYHRLPLS gave 0.42 (6 of 6 replicates).
Variant KLAQSVPYESRNKNSVA / NASTRES / QQYHRLPLS gave 0.59 (6 of 6 replicates).
Variant KSSQSVLYESRNHNSVA / WASTRES / QQYHRLPLS gave 1.58 (1 of 6 replicates).
Variant KSSQSVLYESRNKNSVA / WASTRES / SQYHRLPLS gave 2.65 (1 of 6 replicates).
Variant KLYSVTGTEKVNGNNVA / EMETRER / QQYNRLPLS gave 0.50 (6 of 6 replicates).
Variant IVSQLMMWGLHAKNSIA / EAVTRYN / QQYERLPLF gave 0.39 (6 of 6 replicates).
Variant KLAQSWLYESRNKNSVA / NASQRES / QQYHRLPLS gave -0.19 (6 of 6 replicates).
Variant SLGLSTMLEEYVRNSVA / NNSTREK / QQYDRLPLS gave 3.38 (1 of 6 replicates).
Variant KIGMTLNQQMKKKNNVA / DLVMREN / QQYHRLPLS gave 0.56 (6 of 6 replicates).
Variant KSSQSVLYESRNKNSVA / FASTRES / QCYHRLPLS gave no signal (0 of 6 replicates).
Variant NISESMFYQSRNKNNIA / EMSTRER / QHYHRLPLS gave 0.25 (6 of 6 replicates).
Variant KSSQSVLYESRNSNNVA / KAATRES / QQYHRLPLS gave 0.29 (6 of 6 replicates).
Variant HISPSFMVESRLKNSVA / QTETREK / QQYDRLPLS gave 0.77 (6 of 6 replicates).

Picked from the list: the 5 lowest averages where every replicate gave a value.

The variant KLSQSFLYESRNKNAVA / EASTRES / QQYHRLPLS showed -0.61 (6 of 6 replicates).
The variant KLRQSTLYESRNQNSVA / GASTRES / QQYHRLPLS showed -0.39 (6 of 6 replicates).
The variant KLSQSDLYESRNKNSVA / NASTREV / QQYHRLPLS showed -0.25 (6 of 6 replicates).
The variant KLSQSQLYESRNKNAVA / QASQRES / QQYHRLPLS showed -0.21 (6 of 6 replicates).
The variant KLAQSWLYESRNKNSVA / NASQRES / QQYHRLPLS showed -0.19 (6 of 6 replicates).

Values reported by Li et al. 2023, doi:10.1038/s41467-023-39022-2 (FLAb copy).